Molecular target: Cannabinoid receptor 1 (Homo sapiens, UniProt P21554)
Test: Inverse agonist activity at human CB1 receptor expressed in CHOK1 cells co-expressing Galphaq16 assessed as reduction in CP55940-induced intracellular calcium mobilization by calcein-4 AM dye based fluorescence assay
Assay type: functional, cell-based

By UniProt entry, the sequences of proteins in these tests, tags left out.
UniProt P21554, whole entry: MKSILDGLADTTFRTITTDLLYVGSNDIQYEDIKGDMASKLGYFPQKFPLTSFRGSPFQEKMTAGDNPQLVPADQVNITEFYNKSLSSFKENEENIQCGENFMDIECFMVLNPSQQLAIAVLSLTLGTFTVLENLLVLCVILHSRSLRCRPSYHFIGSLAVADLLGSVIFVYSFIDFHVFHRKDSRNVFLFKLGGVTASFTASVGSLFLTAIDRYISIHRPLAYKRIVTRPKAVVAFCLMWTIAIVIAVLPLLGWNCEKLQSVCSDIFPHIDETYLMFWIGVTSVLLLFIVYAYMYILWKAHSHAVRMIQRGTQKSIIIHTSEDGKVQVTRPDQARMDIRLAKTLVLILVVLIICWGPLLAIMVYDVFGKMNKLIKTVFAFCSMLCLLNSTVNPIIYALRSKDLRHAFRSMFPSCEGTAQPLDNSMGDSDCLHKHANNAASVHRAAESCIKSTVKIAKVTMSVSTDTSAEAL

For O=C(Nc1ccc(OC(F)F)nc1)NC1CCN(c2ncnc3c2nc(-c2ccccc2Cl)n3-c2ccc(Cl)cc2)CC1, the EC50 was 718 nM.

Source: ChEMBL document CHEMBL4364254 (J Med Chem, 2019)
